Earlier results, collected in US6073962A (priority 1994, dated 2000).

System: mouse
Conditions: literature value, British J. Pharmacol., Vol. 1, 1 (1949); cited from earlier work

Substance: sodium azide
- LD50 level: 27 mg/kg
